Consider two compounds from US10058534B2, “Benzothiophene derivatives and compositions thereof as selective estrogen receptor degraders” (NOVARTIS AG, priority 2013, dated 2018).

Sequences of proteins named here, by UniProt entry; tags and fusion partners are left off.
UniProt P03372, whole entry: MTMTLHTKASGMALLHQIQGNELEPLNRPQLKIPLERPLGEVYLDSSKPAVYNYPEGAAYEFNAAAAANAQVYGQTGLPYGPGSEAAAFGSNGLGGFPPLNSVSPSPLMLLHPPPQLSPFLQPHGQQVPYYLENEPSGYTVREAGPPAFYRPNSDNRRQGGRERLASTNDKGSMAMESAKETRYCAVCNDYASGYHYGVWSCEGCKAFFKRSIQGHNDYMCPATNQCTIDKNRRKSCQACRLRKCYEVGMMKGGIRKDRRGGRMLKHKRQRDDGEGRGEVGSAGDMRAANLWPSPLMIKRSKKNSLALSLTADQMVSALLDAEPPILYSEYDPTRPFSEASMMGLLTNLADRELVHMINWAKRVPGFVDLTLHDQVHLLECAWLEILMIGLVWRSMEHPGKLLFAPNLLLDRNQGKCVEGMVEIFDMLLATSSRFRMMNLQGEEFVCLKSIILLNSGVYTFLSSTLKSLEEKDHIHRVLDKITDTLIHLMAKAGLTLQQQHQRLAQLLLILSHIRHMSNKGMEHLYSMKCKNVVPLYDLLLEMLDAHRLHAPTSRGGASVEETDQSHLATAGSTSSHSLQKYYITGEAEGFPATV

A word on the IC50: it is the concentration that inhibits the measured activity by half. Lower therefore signals greater potency in that assay.

The target in the test is ERα (Homo sapiens (Human), UniProt P03372). Nature of the test: ERα degradation (MCF7 cells), in-cell Western. In kind it is cell-based. Particulars: inflection point of the degradation in response to ligand concentration.

On to `Cc1cc(F)ccc1-c1sc2cc(O)ccc2c1Oc1ccc(/C=C/c2nnc(C)n2C)cc1` [Example 106, (E)-3-(4-(2-(4,5-dimethyl-4H-1,2,4-triazol-3-yl)vinyl)phenoxy)-2-(4-fluoro-2-methylphenyl)benzo[b] thiophen-6-ol], for which the IC50 is 4.1 nM. In the case of `CCc1cccc(CC)c1-c1sc2cc(O)ccc2c1Oc1ccc(/C=C/C(=O)O)cc1` [Example 130, (E)-3-(4-((2-(2,6-diethylphenyl)-6-hydroxybenzo[b]thiophen-3-yl)oxy)phenyl)acrylic acid] it was 5.1 nM.
